# Tested on: HCT116, DLD1 and SW480
# Assay: Synergy score screen: chemotherapeutic agents in low serine, glycine, cysteine medium, cell counts
# Details: average synergy score for three colorectal cells lines, drug at 0.01, 0.1 and 1 uM for 48 hours, cysteine (17-23 uM) vs complete medium (100 uM)
substance,measurement,value
Cetuximab,SYNERGY SCORE,7.68
